{
  "source": "patent US10253089B2",
  "about": "“Matrix metalloproteinase cleavable protein polymers for cancer gene therapy” (The University of Utah Research Foundation, priority 2012, dated 2019)",
  "molecular_target": "T1, Human Leukocyte Elastase (Homo sapiens, UniProt P08246)",
  "T1 sequence (P08246 30-247 limits assumed)": "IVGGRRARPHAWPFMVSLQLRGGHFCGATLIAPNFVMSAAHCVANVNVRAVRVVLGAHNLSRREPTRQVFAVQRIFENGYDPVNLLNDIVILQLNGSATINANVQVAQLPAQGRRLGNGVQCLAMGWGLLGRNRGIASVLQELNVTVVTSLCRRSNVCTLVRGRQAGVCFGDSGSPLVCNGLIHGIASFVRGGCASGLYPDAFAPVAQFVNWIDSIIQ",
  "data": [
    {"molecule": "SELP815K: silk-elastin-like protein polymer, longer silk units, fifteen elastin units, lysine elastin unit; monomer repeated 6 times (SEQ ID NO. 21) (protein, monomer repeated 6 times; Hybrid of Homo sapein and Bombyx mori) MDPVVLQRRDWENPGVTQLNRLAAHPPFASDPMGAGSGAGAGSGAGAGSGVGVPGVGVPGVGVPGVGVPGKGVPGVGVPGVGVPGVGVPGVGVPGVGVPGVGVPGVGVPGVGVPGVGVPGVGVPGVGVPGAGAGSGAGAGSGAGAGSGAGAGSGAGAGSGAGAGAGSGAGAGSGAGAGSGVGVPGVGVPGVGVPGVGVPGKGVPGVGVPGVGVPGVGVPGVGVPGVGVPGVGVPGVGVPGVGVPGVGVPGVGVPGVGVPGAGAGSGAGAGSGAGAGSGAGAGSGAGAGSGAGAGAGSGAGAGSGAGAGSGVGVPGVGVPGVGVPGVGVPGKGVPGVGVPGVGVPGVGVPGVGVPGVGVPGVGVPGVGVPGVGVPGVGVPGVGVPGVGVPGAGAGSGAGAGSGAGAGSGAGAGSGAGAGSGAGAGAGSGAGAGSGAGAGSGVGVPGVGVPGVGVPGVGVPGKGVPGVGVPGVGVPGVGVPGVGVPGVGVPGVGVPGVGVPGVGVPGVGVPGVGVPGVGVPGAGAGSGAGAGSGAGAGSGAGAGSGAGAGSGAGAGAGSGAGAGSGAGAGSGVGVPGVGVPGVGVPGVGVPGKGVPGVGVPGVGVPGVGVPGVGVPGVGVPGVGVPGVGVPGVGVPGVGVPGVGVPGVGVPGAGAGSGAGAGSGAGAGSGAGAGSGAGAGSGAGAGAGSGAGAGSGAGAGSGVGVPGVGVPGVGVPGVGVPGKGVPGVGVPGVGVPGVGVPGVGVPGVGVPGVGVPGVGVPGVGVPGVGVPGVGVPGVGVPGAGAGSGAGAGSGAGAGSGAGAGSGAGAGSGAGAMDPGRYQDLRSHHHHHH", "values": [
      {"measurement": "sensitivity to elastase degradation (soluble fraction release)", "result": "lowest sensitivity to degradation"},
      {"measurement": "resistance to elastase degradation", "setting": "8 wt % hydrogel vs SELP47K and SELP415K at 12 wt %", "result": "more resistant to degradation"}
    ]}
  ]
}
